Test results from ChEMBL document CHEMBL5661974, “Pharmacologic characterization of a potent inhibitor of class I phosphatidylinositide 3-kinases” (Cancer Res, 2007).

Protein sequences, listed by entry. Tags and fused reporters are not part of them. Lines headed by an entry give the natural chain unless they say otherwise; changes in a name come on top.
UniProt P42338: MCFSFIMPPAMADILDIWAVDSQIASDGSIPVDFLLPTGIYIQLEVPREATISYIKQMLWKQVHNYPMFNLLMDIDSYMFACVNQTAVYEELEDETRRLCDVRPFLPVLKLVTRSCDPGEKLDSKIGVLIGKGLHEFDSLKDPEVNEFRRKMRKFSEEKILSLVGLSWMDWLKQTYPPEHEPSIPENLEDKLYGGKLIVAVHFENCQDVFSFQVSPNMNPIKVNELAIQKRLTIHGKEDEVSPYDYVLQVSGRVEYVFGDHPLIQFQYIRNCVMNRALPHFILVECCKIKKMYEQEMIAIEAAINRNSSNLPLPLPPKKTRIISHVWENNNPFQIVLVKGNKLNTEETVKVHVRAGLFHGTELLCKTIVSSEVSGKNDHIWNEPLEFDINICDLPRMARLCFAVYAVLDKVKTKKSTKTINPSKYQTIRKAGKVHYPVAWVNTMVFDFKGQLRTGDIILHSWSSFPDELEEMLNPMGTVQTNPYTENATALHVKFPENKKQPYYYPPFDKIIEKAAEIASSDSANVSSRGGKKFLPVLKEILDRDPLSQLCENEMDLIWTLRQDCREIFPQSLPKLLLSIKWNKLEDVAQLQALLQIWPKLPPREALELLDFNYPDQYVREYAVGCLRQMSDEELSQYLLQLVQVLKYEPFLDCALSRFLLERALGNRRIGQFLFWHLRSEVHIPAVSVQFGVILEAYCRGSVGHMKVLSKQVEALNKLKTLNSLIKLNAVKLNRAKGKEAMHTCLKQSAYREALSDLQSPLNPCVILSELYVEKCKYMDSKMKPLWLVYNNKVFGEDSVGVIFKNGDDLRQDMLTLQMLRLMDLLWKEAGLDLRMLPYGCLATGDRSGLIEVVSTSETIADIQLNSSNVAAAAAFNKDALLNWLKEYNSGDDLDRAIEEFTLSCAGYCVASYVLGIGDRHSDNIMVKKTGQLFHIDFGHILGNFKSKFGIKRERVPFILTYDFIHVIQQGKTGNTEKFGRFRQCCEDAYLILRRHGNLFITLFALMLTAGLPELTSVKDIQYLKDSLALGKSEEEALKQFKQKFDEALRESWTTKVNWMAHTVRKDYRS

How the values were obtained:
[1] = target: T1, Phosphatidylinositol 4,5-bisphosphate 3-kinase catalytic subunit delta isoform (Homo sapiens, UniProt O00329); assay: Inhibition of human recombinant PI3Kdelta in the presence of ATP by scintillation proximity radiometric assay
T1 sequence (O00329 whole entry): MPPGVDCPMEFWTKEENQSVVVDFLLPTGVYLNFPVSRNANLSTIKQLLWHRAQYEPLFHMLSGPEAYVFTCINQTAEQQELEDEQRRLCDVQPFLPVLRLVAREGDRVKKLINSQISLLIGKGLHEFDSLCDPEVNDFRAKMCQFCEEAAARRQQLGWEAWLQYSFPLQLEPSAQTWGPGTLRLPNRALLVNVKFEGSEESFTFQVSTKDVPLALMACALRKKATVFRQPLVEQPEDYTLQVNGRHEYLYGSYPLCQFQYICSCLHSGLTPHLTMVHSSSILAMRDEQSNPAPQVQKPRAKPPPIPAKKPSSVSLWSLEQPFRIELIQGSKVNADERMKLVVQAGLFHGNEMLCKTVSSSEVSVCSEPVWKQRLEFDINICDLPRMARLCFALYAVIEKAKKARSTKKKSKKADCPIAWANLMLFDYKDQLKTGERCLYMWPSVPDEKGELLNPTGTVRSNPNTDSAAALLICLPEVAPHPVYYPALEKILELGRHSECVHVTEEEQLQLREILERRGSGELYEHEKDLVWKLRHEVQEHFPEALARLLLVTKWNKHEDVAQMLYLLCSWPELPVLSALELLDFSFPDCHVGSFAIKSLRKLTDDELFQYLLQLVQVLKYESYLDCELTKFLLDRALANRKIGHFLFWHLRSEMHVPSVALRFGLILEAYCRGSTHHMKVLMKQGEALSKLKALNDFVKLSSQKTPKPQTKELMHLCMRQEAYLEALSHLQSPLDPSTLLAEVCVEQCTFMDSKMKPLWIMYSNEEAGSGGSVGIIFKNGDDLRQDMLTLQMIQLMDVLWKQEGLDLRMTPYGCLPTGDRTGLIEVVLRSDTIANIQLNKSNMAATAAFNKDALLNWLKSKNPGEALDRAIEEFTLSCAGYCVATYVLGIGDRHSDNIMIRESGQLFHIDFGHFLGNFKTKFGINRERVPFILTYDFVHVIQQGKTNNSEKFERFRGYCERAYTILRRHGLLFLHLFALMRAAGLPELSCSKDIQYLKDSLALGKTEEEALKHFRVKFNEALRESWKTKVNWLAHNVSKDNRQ
Method in brief: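 Human recombinant enzyme; scintillation proximity radiometric format with 1 μmol/L ATP. IC50 from sigmoidal dose-response fit, mean of three experiments.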

[2] = target: Phosphatidylinositol 4,5-bisphosphate 3-kinase catalytic subunit beta isoform (Homo sapiens, UniProt P42338)
[3] = Clearance in BALB/C mouse liver at 2.5 mg/kg, iv by LC-MS/MS analysis; assay type: ADME, organism-based; settings: in vivo
[4] = Clearance in BALB/C mouse kidney at 2.5 mg/kg, iv by LC-MS/MS analysis; assay type: ADME, organism-based; settings: in vivo
[5] = Clearance in BALB/C mouse spleen at 2.5 mg/kg, iv by LC-MS/MS analysis; assay type: ADME, organism-based; settings: in vivo

IC50 [1] [µM]	IC50 [2] [µM]	CLH [3] [L/h]	CL [4] [L/h]	CL [5] [L/h]	SMILES
0.6	0.58				O=c1cc(N2CCOCC2)oc2c(-c3ccccc3)cccc12 [LY-294002]
		0.09	0.26	0.27	Oc1cccc(-c2nc(N3CCOCC3)c3oc4ncccc4c3n2)c1 [PI-103]
